Where two headings read alike, the source gives them in different places.
How the values were obtained:
[1] = Text: (§1) The toxic metals were reported as μg/g creatinine in order to account for urine dilution variations.
as §1, §1, §1

[2] = Child D, before therapy; reference range 0.0-14.9 μg/L

Substance: Mercury
- Level of mercury in urine ([1]; Child D, autistic person, before therapy): undetectable levels
- Toxic metals in urine, Results ([1]; Child X (autistic person), urine collected Nov. 5, 2000, during DMSA treatment, creatinine 43.4 mg/dL): 15 μg/g creatinine
- Toxic metals in urine, Results ([1]; Child X, urine collected Sep. 30, 2001, during DMSA treatment, creatinine 54 mg/dL): 5.4 μg/g creatinine
- Toxic metals in urine, Results ([1]; Child Y (autistic person), urine collected Jun. 29, 2002, during DMSA treatment, creatinine 6.9 mg/dL): 29 μg/g creatinine
- Toxic metals in urine, Results ([1]; Child Y, urine collected Dec. 24, 2002, during DMSA treatment, creatinine 8.6 mg/dL): 11 μg/g creatinine
- Level of mercury in blood [2]: 1.5 ng/mL

— US20070254314A1, “Methods of treating autism and autism spectrum disorders” (priority 2004, published 2007)
